Compounds with a hit are over-represented: about 13% of the library has one in this group of screens.
G9a inh – G9a (human) methyltransferase inhibition | 350,000 tested, 8.8% active | G9a H3K9 monomethylation, AlphaScreen, 2 h | Q96KQ7 | Potency, µM (series often up to 102 µM), inactives show top-dose activity, negative = inhibition, hits mostly inhibitors; also: potency is read from the fitted curve at half-maximal effect; % is scaled to controls: 0 for no effect and ±100 for the full control effect; nearly all actives have a fitted effect of over 75% in size
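Step 1: enzyme (final 20 nM) with compound, 15 min RT. Step 2: substrate peptide 500 nM and SAM 20 uM, 2 h RT. Step 3: anti-H3K9me1 antibody and AlphaScreen beads, 10 min, then plate read.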
Sfp PPTase inh – inhibitors of Bacillus subtilis Sfp phosphopantetheinyl transferase. Q9F4F7. Biochemical Sfp PPTase activity, qHTS. Potency, µM, inactives show max response, negative = inhibition, most hits filed as inhibitors. 3.5% of 310,000 active. AID 1490; active = well fitted inhibition curve with a large enough effect; inconclusive = small, poorly fitted or top-dose-only effect, or another doubt; inactive = no such curve, though single readings can be large or run the other way;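 also: the enzyme is Sfp with the accession as filed and its product quenches rhodamine fluorescence; potency is read from the fitted curve at half-maximal effect; 0% = enzyme reaction without inhibitor and -100% = no enzyme wells; top concentration of the series not given in the record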
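Buffer: 50 mM Hepes-Na pH 7.6, 10 mM MgCl2, 0.01% Nonidet P-40, 0.01% BSA. Enzyme 15 nM, pre-exposed to compound 15 min; substrates then added and fluorescence change tracked over 30 min.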
JMJD2E inh – inhibitors of human JMJD2E histone demethylase; B2RXH2; JMJD2E catalytic domain, FDH-coupled NADH fluorescence (FDH is formaldehyde dehydrogenase); Potency, µM (titrated, usually from 57.1 µM), for the others: at the highest dose activity change, negative = inhibition, hits mostly inhibitors; 230,000 tested, 1.6% active; AID 2147; active = well fitted inhibition curve with a large enough effect, not every such curve was filed as active; inconclusive = small, poorly fitted or top-dose-only effect, or another doubt; inactive = no such curve, though single readings can be large or run the other way;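 also: potency is read from the fitted curve at half-maximal effect; 0% = wells with enzyme and -100% = buffer wells without enzyme; nearly all actives have a fitted effect of over 50% in size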
miR-21 FLuc – raises the signal of a miR-21 reporter; HeLa miR-21 FLuc reporter, luciferase, 48 h; Potency, µM (top dose mostly 38.3 µM), for inactives: at the highest dose reporter change, positive = more light; AID 2288; 340,000 tested, under 10 active; active = well fitted rising curve with a large enough effect; inconclusive = small, poorly fitted or top-dose-only effect; inactive = no such curve, though single readings can be large or run the other way;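 note: % of control where 0% means no effect; miR-21 action dims this reporter so a rising signal means less miR-21 action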
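Using DMEM plus 10% FBS, HeLa miR-21-FLuc cells are incubated with test compounds (final up to about 40uM) for 48 hours; firefly luciferase signal is then imaged following reagent-mediated lysis.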
ALDH1A1 block – ALDH1A1 (human) enzyme inhibition; Potency, µM (highest dose often 75.3 µM), for the others: at the top dose activity, negative = inhibition, usual class: inhibitors; Purified ALDH1A1, NADH fluorescence, propionaldehyde substrate; P00352; 220,000 tested, 7.3% active; active = well fitted inhibition curve with a large enough effect, not every such curve was filed as active; inconclusive = small, poorly fitted or top-dose-only effect, or another doubt; inactive = no such curve, though single readings can be large or run the other way;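 also: potency is read from the fitted curve at half-maximal effect; plate controls were no enzyme wells and a reference inhibitor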
LMNA splice mod – LMNA splicing modulation; Potency, µM (series often up to 46.1 µM), for the others: at the highest dose ratio change, negative = inhibition, most hits filed as inhibitors; AID 1487; 200,000 tested, 0.01% active; HeLa LMNA splicing GFP/RFP minigene ratio, 48 h; active = well fitted inhibition curve with a large enough effect in the signal ratio, with a control signal flat, not every such curve was filed as active; inconclusive = small, poorly fitted or top-dose-only effect, or effect the other way, or a change in a side signal; the % refers to the signal ratio; also: potency is read from the fitted curve at half-maximal effect; % is scaled to controls: 0 for no effect and ±100 for the full control effect
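S3 HeLa cells stably expressing lamin A-EGFP splicing minigene plus DsRed2, 600 cells/well, 48 h compound exposure at 37C. Laser-scanning cytometry; analysed as GFP (500-530 nm)/RFP (575-640 nm) total intensity ratio; 0.5% DMSO vehicle.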
* hit, by the source's call; ? = inconclusive; nt = no result given; [ ] = another dose, or the depositor's remark. Unless noted, calls follow the shape of the dose curve; as a rule, active = well fitted curve in the direction sought with a large enough effect; inconclusive = small, poorly fitted or top-dose-only effect, or another doubt; inactive = no such curve, though single readings can be large; an effect the other way counts as inactive or inconclusive.

SMILES | G9a inh | Sfp PPTase inh | JMJD2E inh | miR-21 FLuc | ALDH1A1 block | LMNA splice mod
COc1ccccc1N(C(=O)CN1C(=O)c2ccccc2S1(=O)=O)C(C(=O)NCC1CCCO1)c1ccc(F)cc1 (stereo not drawn) | -6% | 5% | 9% | -1% | ? | ?
COc1cccc(C(C(=O)NCC2CCCO2)N(CC2CCCO2)C(=O)CN2C(=O)c3ccccc3S2(=O)=O)c1 (stereo not drawn) | 11% | 13% | ? | 0% | 14µM* | 1%[46 µM]
COc1ccc(Br)c2c1-c1nc(NC(=O)c3ccc(F)cc3)sc1C2 | -22%[59 µM] | nt | nt | -5% | nt | nt
CC1CCCN(c2ncnc3c2nc2n3CCCCC2)C1 (stereo not drawn) | 7%[59 µM] | nt | nt | -47% | nt | 10%[46 µM]
Cc1ccc(-c2c3c(=O)n(C)c(=O)n(C)c3cn2Cc2ccccc2)cc1 | 11µM* | -13% | ? | -8% | ? | 12%
COC(=O)c1ccccc1-n1cc2c(c1-c1cccc(C)c1)c(=O)n(C)c(=O)n2C | 7.9µM* | nt | nt | -5% | nt | nt
Cc1cccc(-c2c3c(=O)n(C)c(=O)n(C)c3cn2-c2ccccc2O)c1 | ? | 50µM* | ? | -20% | ? | 22%
CC(C)c1ccc(S(=O)(=O)N2CCN(C(=O)[C@@H]3CCCN3C(=O)c3cccs3)CC2)cc1 | 45µM* | nt | nt | nt | nt | nt
COC(=O)c1cccc(C(=O)N2CCCC(Nc3ccc(C)c(C)c3)C2)c1 (stereo not drawn) | 50µM* | 7% | nt | -1% | nt | nt
COc1ccc(NC2CCCN(C(=O)c3csc(C(C)C)n3)C2)cc1 (stereo not drawn) | -17% | 21% | nt | -4% | nt | nt
O=C(C1CCCN1C(=O)c1cccs1)N1CCN(S(=O)(=O)c2ccc(F)cc2)CC1 (stereo not drawn) | -8%[12.7 µM] | nt | nt | nt | nt | nt
COc1ccc(C(=O)N2CCCC(Nc3ccc(C)c(C)c3)C2)cc1F (stereo not drawn) | 10% | 3% | nt | -3% | nt | nt
COc1ccc(NC2CCCN(C(=O)c3cccs3)C2)cc1 (stereo not drawn) | 50µM* | 11% | nt | -12% | nt | nt
COc1ccc(NC2CCCN(C(=O)c3cc(CC(C)C)nc(N)n3)C2)cc1 (stereo not drawn) | 45µM* | -2% | nt | -2% | nt | nt
C=CC1=C2C=C(C3CC3)N(CCCOC(C)C)C=C2C(=O)C(C)(OC(=O)c2ccco2)C1=O (stereo not drawn) | nt | -26% | -23%[11.4 µM] | nt | 13%[13.5 µM] | 13%[9.22 µM]
COc1ccc(-c2[nH]ncc2/C=N/NC(=O)c2ccncc2)c(OC)c1 | 87% | 17% | nt | -1% | nt | nt
Cc1cc(C(=O)N2CCCC(N3CCN(c4cccc(C(F)(F)F)c4)CC3)C2)c(C)o1 (stereo not drawn) | 79µM* | 17% | nt | 19% | nt | nt
CC(C)c1ccc(NC2CCCN(C(=O)c3ccnn3C)C2)cc1 (stereo not drawn) | ? | 7% | nt | 6% | nt | nt
CC(C)c1ccc(NC2CCCN(C(=O)c3cccs3)C2)cc1 (stereo not drawn) | 50µM* | -4% | nt | -3% | nt | nt
Cc1occc1C(=O)N1CCCC(N2CCN(c3cccc(C(F)(F)F)c3)CC2)C1 (stereo not drawn) | ? | 13% | nt | 16% | nt | nt
Cc1ccc(NC2CCCN(C(=O)c3cccs3)C2)cc1C (stereo not drawn) | 35µM* | 3% | nt | -14% | nt | nt
COc1ccc(NC2CCCN(C(=O)c3ccccc3C(F)(F)F)C2)cc1 (stereo not drawn) | 40µM* | 10% | nt | 0% | nt | nt
Cc1ccc(C)c(Cn2c(=O)n(CCc3ccccc3)c(=O)c3c(C)c(C)sc32)c1 | -20%[59 µM] | nt | nt | -3% | nt | nt
CCc1ccc(C2=C(C)C(N3CCC(C(=O)NCc4ccc(C)o4)CC3)=NS2(=O)=O)cc1 | 16%[59 µM] | nt | nt | -2% | nt | 14%[46 µM]
COc1cccc(OC)c1C(=O)N1CCNCC1 | -11%[0.501 µM] | 7% | nt | -3% | nt | nt
CCOC(=O)N1CCN(C2CCCN(C(=O)c3ccccc3C(F)(F)F)C2)CC1 (stereo not drawn) | 71µM* | 9% | nt | -2% | nt | nt
COc1cccc([C@@H]2Oc3ccc(OC)cc3C[C@H]2OC(=O)N[C@H](C)C2CCCCC2)c1 | nt | -9% | -5% | nt | 0% | nt
O=C(OCc1cc(=O)n2nc(C3CC3)sc2n1)c1ccc(F)cc1 | -13%[59 µM] | nt | nt | -14% | nt | ?
C/C=C/c1ccc(OCC(=O)Nc2ccc(C(N)=O)cc2)c(OC)c1 | -32% | 2% | 8% | -7% | 7% | ?
COc1cc(/C=C/c2cc[n+](C)cc2)ccc1OCC(=O)Nc1ccccc1 | 13µM* | 15% | nt | -17% | nt | nt
COc1ccc(/C=C(\C#N)C(=O)OCC(=O)Nc2ccc(C(C)(C)C)cc2)cc1 | -7%[59 µM] | 10% | 3% | -12% | 22µM* | ?
CNC(=S)N/N=C/c1ccc(OCC(=O)Nc2c(C)cc(C)cc2C)c(OC)c1 | 7% | -2% | 5% | -9% | 11% | -5%

Arranged by length of the SMILES (high to low): some entries from above
SMILES | G9a inh | Sfp PPTase inh | JMJD2E inh | miR-21 FLuc | ALDH1A1 block | LMNA splice mod
COc1ccc(/C=C(\C#N)C(=O)OCC(=O)Nc2ccc(C(C)(C)C)cc2)cc1 | -7%[59 µM] | 10% | 3% | -12% | 22µM* | ?
COc1cc(/C=C/c2cc[n+](C)cc2)ccc1OCC(=O)Nc1ccccc1 | 13µM* | 15% | nt | -17% | nt | nt
O=C(OCc1cc(=O)n2nc(C3CC3)sc2n1)c1ccc(F)cc1 | -13%[59 µM] | nt | nt | -14% | nt | ?

(listing goes on)
SMILES | G9a inh | Sfp PPTase inh | JMJD2E inh | miR-21 FLuc | ALDH1A1 block | LMNA splice mod
COc1ccc(/C=C(\C#N)C(=O)OCC(=O)NC2CC2)cc1 | -23% | 8% | -8% | -2% | 20µM* | ?
COc1cc(/C=N/NC(N)=S)ccc1OCC(=O)Nc1ccc(C)cc1 | ? | -14% | 3% | -5% | 25µM* | -6%
CN(CC(=O)Nc1ccccc1Cl)C(=O)CN1C(=O)C2CCCCC2C1=O (stereo not drawn) | -8% | nt | nt | nt | nt | nt
CCN(CC)C(=O)Cn1ncc2c([nH]c3ccc(C)cc32)c1=O | 1%[59 µM] | nt | nt | 1% | nt | ?
CCOC(=O)/C(C#N)=C/c1ccc(OCC(=O)Nc2ccc(OC)cc2)c(OC)c1 | -42%[12.7 µM] | 13% | -13% | -1% | 5µM* | -6%
CCOc1ccc(NC(=O)/C(=C\c2ccc(OC(C)=O)c(OC)c2)NC(C)=O)cc1 | -18%[59 µM] | -12% | -3% | -9% | 10µM* | -6%
COc1ccc(NC(=O)/C(=C/c2ccc3c(c2)OCO3)NC(C)=O)cc1 | 0%[59 µM] | 16% | 4% | -25% | 4% | 2%
Cn1cnnc1SCC(=O)c1ccc2c(c1)OCCO2 | ? | ? | 2% | -15% | 8.9µM* | -1%
Cn1c(SCC(=O)c2ccc3c(c2)OCCO3)nnc1C1CC1 | 22µM* | 71µM* | -2% | -28% | 20µM* | 1%
Cn1nnnc1SCC(=O)c1ccc2c(c1)OCCO2 | 15% | 10% | 4% | -38% | ? | nt
CCCCn1nnnc1SCC(=O)Nc1ccc2c(c1)OCCO2 | 13% | 2% | 2% | -2% | 4.5µM* | -5%
CCCn1nnnc1SCC(=O)c1ccc2c(c1)OCCO2 | ? | 8% | -3% | -23% | 3.2µM* | 5%
CCN(CC)CCCC(C)Nc1c2ccc(Cl)cc2nc2ccc(OC)cc12 (stereo not drawn) | 8.4µM* | ? | ? | 23% | ? | ?
